Earlier results, collected in PMC11852235, “Discovery of Effective Inhibitors Against Phosphodiesterase 9, a Potential Therapeutic Target of Alzheimer’s Disease with Antioxidant Capacities” (Antioxidants, 2025).

Tested on: PDE9
Settings: read-out: PDE9 IC50; Figure 1, current PDE9 inhibitors; cited from earlier work

For C[C@@H]1CN(Cc2ncccn2)C[C@H]1c1nc2c(cnn2C2CCOCC2)c(=O)[nH]1, the IC50 is listed as 8.3 nM.
